In PubChem BioAssay (Tox21):
Only a part is listed here, and it is no random draw. Results filed as inconclusive are left out. Activity calls are given as the source filed them. Calls follow the shape of the dose curve; as a rule, active = well fitted inhibition curve with a large enough effect in the signal ratio in the repeat runs, with a control signal flat; inconclusive = weak or mixed curves, or effect the other way; inactive = flat fitted curve, though single readings scatter; the % refers to the signal ratio.

The chains behind the UniProt entries cited, without tags or fusion partners.
UniProt P14416, whole entry, looked up: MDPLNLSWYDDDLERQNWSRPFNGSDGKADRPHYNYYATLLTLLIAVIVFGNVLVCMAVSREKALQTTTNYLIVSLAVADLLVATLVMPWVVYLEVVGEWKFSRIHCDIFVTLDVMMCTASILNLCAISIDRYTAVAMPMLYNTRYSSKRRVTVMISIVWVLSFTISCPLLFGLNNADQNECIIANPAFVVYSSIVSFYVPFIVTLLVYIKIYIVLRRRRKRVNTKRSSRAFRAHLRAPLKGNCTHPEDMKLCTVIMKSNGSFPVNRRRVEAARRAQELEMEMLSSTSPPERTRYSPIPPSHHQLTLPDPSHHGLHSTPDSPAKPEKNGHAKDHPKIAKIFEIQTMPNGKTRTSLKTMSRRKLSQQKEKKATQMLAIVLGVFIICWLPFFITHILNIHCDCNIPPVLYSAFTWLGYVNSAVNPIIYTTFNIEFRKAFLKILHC

Target: D(2) dopamine receptor (Homo sapiens) (UniProt P14416)
Assay: Dopamine D2 receptor (DRD2) small molecule antagonists, cell-based qHTS assay (AID 1963595)
Details: HEK293-DRD2 cAMP HTRF antagonist mode
Method in brief: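 Antagonism was scored as restored cAMP in HEK293-DRD2 cells. These cells were stimulated with 200 nM NKH477 and 12 nM quinpirole for 30 min at room temperature, in the presence of 0.1 mM Ro20-1724.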
Potency is read from the fitted curve at half-maximal effect.

Q: With CN1CCc2cc(Cl)c(O)cc2[C@H]2c3ccccc3CC[C@@H]21 as the compound, how does the Potency read?
A: Its Potency is active: 18.8 µM.
